# Results taken from US20250221953A1 (The University of Chicago, priority 2022, published 2025).
# Tested on: PD-1^+ Jurkat T cells co-cultured with H596 (PD-L1^+) cells
# Experiment: 1st screen 1b: rescue of PD-L1/PD-1 dependent exhaustion of PD-1+ Jurkat T cells in co-culture (IL-2 ELISA)
# Assay type: cell-based, human
# Conditions: 1st screen 1b (Table 4): rescue of PD-L1/PD-1 dependent exhaustion of PD-1 expressing Jurkat T cells co-cultured with PD-L1-expressing H596 cells
row,Compound,Relative changed percentage (%)
1,O=P([O-])(O)O.[K+] [Monopotassium Phosphate],26.14
2,O=S(=O)([O-])[O-].[Cu+2] [Copper sulfate],−19.55
3,O=S(=O)([O-])[O-].[Na+].[Na+] [SODIUM SULFATE],12.89
4,O=C([O-])O.[Na+] [SODIUM BICARBONATE],9.45
5,"NCCc1c[nH]cn1 [HISTAMINE FREE BASE CRYSTALLINE, HISTAMINE FREE BASE]",13.58
6,N[C@@H](CCC(=O)N[C@@H](CS)C(=O)NCC(=O)O)C(=O)O [L-glutathione],−4.051
7,ZINC SULFATE HEPTAHYDRATE,12.37
8,CSCC[C@H](N)C(=O)O [L-Methionine],62.89
9,C[N+](C)(C)CCO.[Cl-] [Choline Chloride],15.7
10,N[C@@H](CCC(=O)N[C@@H](CS)C(=O)NCC(=O)O)C(=O)O [L-GLUTATHIONE REDUCED],−36.35
11,NCC(=O)O [Glycine],43.99
12,Silicic acid,−50.08
13,"androsterone [AN[…],/androsterone]",−32.05
14,"MANGANESE SULFATE MONOHYDRATE [MANGANESE SULFATE MONOHYDRATE,]",−79.46
15,CC/C=C\C/C=C\C/C=C\CCCCCCCC(=O)O [Alpha-linolenic acid (ALA)],52.43
16,CCCCC/C=C\C/C=C\C/C=C\CCCCC(=O)O [Gamma linolenic acid],−94.21
17,O=C([O-])[O-].[Ca+2] [Calcium Carbonate],−5.353
18,O=P([O-])([O-])O.[K+].[K+] [Dipotassium Phosphate],17.73
19,O=C(O)[C@@H]1CCCN1 [L-Proline],0.3268
20,(−)-EPINEPHRINE,−51.6
21,Tricalcium phosphate hydrate,17.36
22,O=C(O)CCC(=O)O [SUCCINIC ACID],−65.83
23,"Cl.NCCc1ccc(O)c(O)c1 [3-HYDRO[…]/dopamine, 3-HYDRO[…]]",−73.99
24,Oc1ccccc1 [PHENOL],−71.08
25,C/C=C/C=C/C(=O)[O-].[K+] [Potassium sorbate],−28.7
26,O=S(=O)([O-])[O-].[Mn+2] [Manganese sulfate],−29.86

# Tested on: B16F10 cells co-cultured with Pmel-1 cells
# Experiment: not given
# Conditions: 20 μM TVA, 24 hours
row,Compound,cytotoxicity of B16F10 cells induced by co-cultured pmel-1-specific T cells
1,"CCCCCC/C=C/CCCCCCCCCC(=O)O [TVA, trans-vaccenic acid]",enhances cytotoxicity
